Among the data in US11713344B2 (DONG-A ST CO., LTD., priority 2017, dated 2023) are EC50 values, retold here.

Sequences of proteins named here, by UniProt entry; tags and fusion partners are left off. Residues count along the entry.
UniProt P43220, 24-463: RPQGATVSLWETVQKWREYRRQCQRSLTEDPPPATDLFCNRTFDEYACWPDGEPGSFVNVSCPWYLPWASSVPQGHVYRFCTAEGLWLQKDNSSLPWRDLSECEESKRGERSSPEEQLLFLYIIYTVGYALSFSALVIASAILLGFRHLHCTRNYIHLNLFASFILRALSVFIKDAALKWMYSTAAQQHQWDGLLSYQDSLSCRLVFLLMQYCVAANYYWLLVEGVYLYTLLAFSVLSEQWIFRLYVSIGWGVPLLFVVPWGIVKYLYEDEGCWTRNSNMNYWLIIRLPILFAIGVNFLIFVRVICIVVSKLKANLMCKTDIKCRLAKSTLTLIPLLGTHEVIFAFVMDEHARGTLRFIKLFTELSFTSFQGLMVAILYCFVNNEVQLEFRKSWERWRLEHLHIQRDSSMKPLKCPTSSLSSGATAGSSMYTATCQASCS
UniProt P47871, 26-477: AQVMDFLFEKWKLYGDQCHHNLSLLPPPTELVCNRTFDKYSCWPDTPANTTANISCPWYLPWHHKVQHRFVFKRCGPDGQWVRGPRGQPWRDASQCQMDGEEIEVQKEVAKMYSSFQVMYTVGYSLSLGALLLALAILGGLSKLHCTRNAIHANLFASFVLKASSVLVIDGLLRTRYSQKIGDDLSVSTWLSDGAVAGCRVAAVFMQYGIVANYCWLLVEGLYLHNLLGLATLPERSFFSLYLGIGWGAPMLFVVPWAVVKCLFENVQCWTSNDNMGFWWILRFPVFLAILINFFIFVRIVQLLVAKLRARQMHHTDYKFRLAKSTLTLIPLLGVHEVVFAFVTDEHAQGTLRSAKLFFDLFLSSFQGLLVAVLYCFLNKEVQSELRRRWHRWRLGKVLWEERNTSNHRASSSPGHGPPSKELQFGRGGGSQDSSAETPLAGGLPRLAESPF

Assay [1] concerns the target Human GLP-1 receptors (Homo sapiens, UniProt P43220). Put plainly: GLP-1 receptor activation assay (CRE-luciferase reporter, CHO-K1).
Assay [2] addresses Human glucagon receptors (Homo sapiens, UniProt P47871). The experiment in a line: Glucagon receptor activation assay (CRE-luciferase reporter, CHO-K1).

SMILES strings stand for the structures.

For orientation: EC50 means the concentration giving half of the maximal effect.

For `CCCCCCCCCCCCCCCCCC(=O)N[C@@H](CCC(=O)NCCOCCOCC(=O)NCCOCCOCC(=O)NCCCC[C@H](NC(=O)[C@H](CC(=O)O)NC(=O)[C@H](CO)NC(=O)[C@@H](NC(=O)[C@H](Cc1ccccc1)NC(=O)[C@@H](NC(=O)CNC(=O)[C@H](CCC(N)=O)NC(=O)C(C)(C)NC(=O)[C@@H](N)Cc1c[nH]cn1)[C@@H](C)O)[C@@H](C)O)C(=O)N[C@@H](CO)C(=O)N[C@@H](CCCCN)C(=O)N[C@@H](Cc1ccc(O)cc1)C(=O)N[C@@H](CC(C)C)C(=O)N[C@@H](CC(=O)O)C(=O)N[C@H]1CCC(=O)Nc2ccc(cc2)NC(=O)CC[C@@H](C(=O)N[C@@H](CC(=O)O)C(=O)N[C@@H](Cc2ccccc2)C(=O)N[C@H](C(=O)N[C@@H](CCC(N)=O)C(=O)N[C@@H](Cc2c[nH]c3ccccc23)C(=O)N[C@@H](CC(C)C)C(=O)N[C@@H](CCSC)C(=O)N[C@@H](CC(N)=O)C(=O)N[C@H](C(=O)N[C@@H](CCCCN)C(=O)O)[C@@H](C)O)C(C)C)NC(=O)[C@H](C)NC(=O)[C@H](CCCNC(=N)N)NC(=O)[C@H](CCCNC(=N)N)NC1=O)C(=O)O` [Compound 29, H-HAibQGTFTSDZSKYLDERRAEDFVQWLMNTK-OH], the EC50 in assay [1] and in assay [2] was less than 10 pM throughout.
With `CCCCCCCCCCCCCCCCCC(=O)N[C@@H](CCC(=O)NCCOCCOCC(=O)NCCOCCOCC(=O)NCCCC[C@H](NC(=O)[C@H](CC(=O)O)NC(=O)[C@H](CO)NC(=O)[C@@H](NC(=O)[C@H](Cc1ccccc1)NC(=O)[C@@H](NC(=O)CNC(=O)[C@H](CCC(N)=O)NC(=O)C(C)(C)NC(=O)[C@@H](N)Cc1c[nH]cn1)[C@@H](C)O)[C@@H](C)O)C(=O)N[C@@H](CO)C(=O)N[C@@H](CCCCN)C(=O)N[C@@H](Cc1ccc(O)cc1)C(=O)N[C@@H](CC(C)C)C(=O)N[C@@H](CC(=O)O)C(=O)N[C@H]1CCC(=O)Nc2ccc(cc2)C(=O)NCCCC[C@@H](C(=O)N[C@@H](CC(=O)O)C(=O)N[C@@H](Cc2ccccc2)C(=O)N[C@H](C(=O)N[C@@H](CCC(N)=O)C(=O)N[C@@H](Cc2c[nH]c3ccccc23)C(=O)N[C@@H](CC(C)C)C(=O)N[C@@H](CCSC)C(=O)N[C@@H](CC(N)=O)C(=O)N[C@H](C(=O)N[C@@H](CCCCN)C(=O)O)[C@@H](C)O)C(C)C)NC(=O)[C@H](C)NC(=O)[C@H](CCCNC(=N)N)NC(=O)[C@H](CCCNC(=N)N)NC1=O)C(=O)O` [Compound 34, H-HAi bQGTFTSDZSKYLDERRAKDFVQWLMNTK-OH], the EC50 in assay [1] and in assay [2] was less than 10 pM in each case.
